In patent US20140154728A1, “COMPOSITIONS, SYSTEMS AND METHODS BASED ON THE DIFFERENTIATION OF EPICARDIAL CELLS TO TYPICAL AND ATYPICAL FATES” (UNIVERSITY OF SOUTHERN CALIFORNIA, priority 2012, published 2014) one finds osteogenic differentiation data, which are given here for 1 molecule.

The assay deals with MEC1 cells. As to the kind of experiment: Osteogenic differentiation of MEC1 cells, mineralized matrix by alizarin red S staining. To be noted: MEC1 cell cultures, BMP2 treatment (not shown). It is filed as cell-based, mouse. The text has this: The assays and associated methods and compositions are based in part on the observation that epicardial cells useable in connection with the present invention can be induced to undergo osteoblast differentiation by treatment with beta-glycerolphosphate and ascorbic acid (bGP+AA). […] The osteoblast differentiation genes AP, osterix, and BSP were induced by treatment (not shown). The outcome with primary mouse EPDCs (both embryonic and adult) was similar (FIG. 3); the extent of mineralization in induced primary cell cultures was less than with MEC1 cells, which might reflect the lesser density of cells (overt mineralization requires cells to aggregate into nodules, which is density dependent) or some heterogeneity in cellular phenotype. Despite the absence of mineralized matrix in the normal embryonic and postnatal heart, the conclusion from this analysis is that MEC1 cells and at least a prominent subset of mouse primary EPDCs are able to undergo osteoblast differentiation.

B1: BMP2: a bone-inducing factor that acts at least in part by inducing Runx2 (protein, UniProt P12643 283-396, looked up)
Bone morphogenetic protein 2: QAKHKQRKRLKSSCKRHPLYVDFSDVGWNDWIVAPPGYHAFYCHGECPFPLADHLNSTNHAIVQTLVNSVNSKIPKACCVPTELSAISMLYLDENEKVVLKNYQDMVVEGCGCR
B1: the osteogenic differentiation entry is given as “nor did BMP2 treatment induce osteogenic differentiation”.
